## Antibody variant affinities, Ab-14 heavy chain, assay 1

Data: MIT Lincoln Laboratory AlphaSeq set, Engelhart et al. 2022, doi:10.1038/s41597-022-01779-4, as distributed in FLAb.

All variants were tested on one target, the spike HR2 peptide PDVDLGDISGINAS (SARS-CoV-2).

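The parent was found by panning a naive human phage display library on the peptide. AAYL49 was designed without a model: most single CDR substitutions and a random sample of double and triple ones. AlphaSeq pools MATa yeast showing the antibodies with MATalpha yeast showing the peptide. Mating (16 h, 30 °C) was followed by selection of diploids and sequencing of their barcodes. Scores were corrected for input abundance and mapped to Kd with protein pairs of known affinity run in the same pool. There are three technical replicates.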

The variants keep the light chain, the linker and the frameworks of Ab-14 (scFv order VH, a 15-residue (Gly4Ser)3 linker, VL).
VH: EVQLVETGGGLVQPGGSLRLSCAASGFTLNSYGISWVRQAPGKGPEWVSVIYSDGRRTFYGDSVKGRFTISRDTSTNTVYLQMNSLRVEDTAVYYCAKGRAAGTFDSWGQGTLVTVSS
VL: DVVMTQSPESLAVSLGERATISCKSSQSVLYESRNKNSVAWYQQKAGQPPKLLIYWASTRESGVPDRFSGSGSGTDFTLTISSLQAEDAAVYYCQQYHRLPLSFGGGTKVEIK

Changes read parent residue, position, new residue, counted from the first residue of the VH shown.
Values are log10 of the apparent Kd in nM; lower means stronger binding.
Replicates are averaged; those with no signal do not enter the mean.
A pair that was not seen in that replicate is written "ND"; this usually means weak binding, but a binder can also be missed.
As a blank, each scFv also met three strains without target: over library AAYL49, 15% of these pairings were detected, typically at 4.06 and seldom below 2.83. The control count says in how many pairings with the empty strains this scFv gave a signal, with their mean in brackets.

changes	replicates, log10 nM	mean log10 Kd (nM)	control signals
G55T	5.46 / 5.32 / ND	5.39	3 of 9 (4.45)
L29N/R57E/T58L	ND / ND / ND	ND	0 of 9
R56F/R57Y/A101G	ND / ND / ND	ND	0 of 9
N30A/S31C/V64T	ND / ND / 3.53	3.53	4 of 9 (3.48)
L29N/G61N/G103W	4.65 / ND / ND	4.65	0 of 9
T28G/N30S/D106K	ND / ND / ND	ND	1 of 9 (3.15)
K65I/G103Y/D106T	ND / ND / ND	ND	0 of 9
D54H/D62L/D106Y	ND / ND / ND	ND	0 of 9
K65H/F105K/S107Y	ND / ND / ND	ND	1 of 9 (3.80)
Y32H/D54F	ND / ND / ND	ND	0 of 9
L29M/Y52W/T58Y	ND / ND / 3.23	3.23	0 of 9
N30R/Y52W/G99H	ND / ND / ND	ND	2 of 9 (3.68)
G33Q/I34K/F59R	ND / 2.42 / ND	2.42	1 of 9 (2.49)
Y32T/A101W/G103L	4.41 / 3.39 / ND	3.90	4 of 9 (4.46)
Y32M/G61L/G103Y	3.86 / 2.95 / 3.99	3.60	6 of 9 (4.66)
S53D/D62T/V64F	ND / ND / ND	ND	2 of 9 (4.71)
F59W/G103F/S107T	ND / ND / ND	ND	0 of 9
S31Q/S107I	ND / ND / ND	ND	0 of 9
F59A/A101G/T104K	ND / ND / ND	ND	0 of 9
L29W/Y32M/G61V	ND / ND / ND	ND	1 of 9 (4.33)
F27L/S35E/K65T	ND / ND / 3.73	3.73	1 of 9 (4.55)
I34M/R57G	ND / ND / ND	ND	2 of 9 (3.38)
I34Y/I51Y/F105G	ND / ND / 3.79	3.79	1 of 9 (3.91)
S31L/R56D/T104W	ND / ND / ND	ND	1 of 9 (4.36)
G26M/I34N/F105Y	4.15 / 3.76 / 4.03	3.98	7 of 9 (4.78)
I34F/D106I	ND / ND / ND	ND	1 of 9 (2.88)
Y52K	ND / ND / ND	ND	1 of 9 (4.26)
Y52F/D54H/A102E	ND / ND / ND	ND	1 of 9 (2.81)
I51A/R57P/F59I	ND / ND / ND	ND	0 of 9
N30C/I34G/V64F	ND / ND / ND	ND	0 of 9
A102T/T104H/F105A	1.89 / 1.65 / 1.70	1.75	2 of 9 (3.95)
T28I/S31I/Y60D	ND / ND / ND	ND	0 of 9
T28I/R56A	1.11 / 1.35 / 1.62	1.36	1 of 9 (3.42)
G26L/S53H/G99R	ND / 3.77 / 4.60	4.19	1 of 9 (3.50)
G55Q/F105Y	ND / ND / ND	ND	0 of 9
T28R/F59Q	2.35 / 2.48 / 2.23	2.35	2 of 9 (3.85)
I34T/S53T/R57D	5.88 / 4.40 / 4.04	4.77	1 of 9 (4.67)
I34C/A101W/S107E	ND / 3.69 / ND	3.69	0 of 9

A selection of 5 entries from above:

changes	replicates, log10 nM	mean log10 Kd (nM)	control signals
K65I/G103Y/D106T	ND / ND / ND	ND	0 of 9
S53D/D62T/V64F	ND / ND / ND	ND	2 of 9 (4.71)
I34M/R57G	ND / ND / ND	ND	2 of 9 (3.38)
Y52F/D54H/A102E	ND / ND / ND	ND	1 of 9 (2.81)
N30R/Y52W/G99H	ND / ND / ND	ND	2 of 9 (3.68)